This data set can be described thus: Pharmacokinetics and tissue distribution after intravenous administration. The following applies: rat.

Structures can show the parent of a compound that is named as a salt. Marks after values point to notes of the source that are not given here.

Turning to `COc1cccc2c1C(=O)c1c(O)c3c(c(O)c1C2=O)C[C@@](O)(C(=O)CO)C[C@@H]3O[C@H]1C[C@H](N)[C@H](O)[C@H](C)O1` [Doxo, Doxorubicin hydrochloride], the AUC (Blood) was 206.564 (h) * (μg/μL), the AUC (Heart) is 445.749 (h) * (μg/g), the AUC (Kidney) was 3428 (h) * (μg/g) and the AUC (Spleen) is given as 445.3 (h) * (μg/g).

The values are drawn from patent US20130323314A1, “Novel Nanoparticles of Lactoferrin Useful for Preparing a Pharmaceutical Composition Facilitating Easy Delivery of the Drug and a Process for Preparing the Same” (UNIVERSITY OF HYDERABAD, priority 2011, published 2013).
